Reference: patent publication US9291619B2, “Method for detecting non-transferrin bound iron” (Yissum Research Development Company of the Hebrew …, priority 2011, dated 2016)

What was measured:
[1] = LPI (labile plasma iron) assay without NTA; assay type: biochemical, human; settings: added to sera from 6 thalassemic patients; citrate 0.15 mM, albumin 10 mg/ml, uric acid 0.5 mM
Experimental: Determination of LPI and DCI. The properties of the assays used in this study in their different modalities are compiled in Table 2, below.
LPI determination, The LPI (Labile iron in plasma) assay was used as described previously or in the presence of NTA added from a concentrated solution. In experiments testing the effects of various additives on LPI, 20 μl of the additives dissolved in HBS (HEPES buffered saline composed of 20 mM HEPES, 150 mM NaCl, pH 7.4) were mixed with 20 μl of serum. Control samples and iron standards were similarly diluted with HBS. LPI assays without added NTA (‘redox-active LPI’) are designated “LPI” and LPI assays with added NTA (0.5 mM unless stated otherwise) are designated “eLPI”.
Measurements of LPI were originally designed for the detection of labile forms of iron in native human plasma or serum. […] This led to simple and sensitive assays that are performed under nearly physiological conditions, with 40 μM ascorbate added to initiate redox cycling of the iron and ensuing generation of reactive oxygen species (ROS) that are quantified by a fluorescence assay (Table 1). […] The detected LPI reflects the most labile or redox-active forms of NTBI in native plasma or serum, but not putative forms bound to non-labile ligands (e.g. citrate, albumin) In addition, the detection of LPI might be susceptible to masking by plasma antioxidants. […]

[2] = DCI (directly chelatable iron) assay with fluorescein-DFO; assay type: biochemical, human; settings: added to thalassemia sera
From the text: DCI determination. The DCI assay (directly chelatable iron) was used for sample analysis of labile iron by assessing its binding to fluorescein-DFO (Table 1) with a fluorescence plate reader or adapted for flow cytometry using as analytical probe fluorescein and DFO covalently coupled to chemically modified polystyrene beads (Spherotec Inc., Lake Forest, Ill., USA) (and an Eclipse instrument (iCyt, Champaign, Ill., USA) (Breuer et al, to be published elsewhere). In tests of the effect of NTA on DCI determination, NTA was added from a stock solution directly to the assay reagents. In experiments testing the effects of various additives on DCI, 20 μl of the additives dissolved in HBS were mixed with 20 μl of serum samples and the combined mixture (40 μl) was used in the assay. Control samples and iron standards were similarly diluted with HBS. In previous publications the term DCI has always indicated the assay format without NTA. In the present work the two formats of the
DCI assay are designated DCI (−) (without NTA) and DCI (+) (with 0.1 mM NTA).
For comparing eLPI with NTBI, the present inventors have employed an alternative assay for NTBI, termed directly-chelatable iron or DCI (FIG. 2, lower panel). Unlike LPI and eLPI which measure iron redox activity, DCI measures the accessibility of NTBI to a fluorescent, high-affinity chelator probe (fluorescein-DFO). […]

human serum albumin: iron-depleted human serum albumin Fraction V, dialyzed with DFO
effect of added serum component on measured LPI values [1]: significantly attenuated | effect of added serum component on DCI values [2]: attenuating effect
